## Yeast mating assay 2: variants of the scFv Ab-95

The target is the same throughout: PDVDLGDISGINAS, from the HR2 region of SARS-CoV-2 spike.

The variants keep the heavy chain, the linker and the frameworks of Ab-95 (scFv order VH, a (GGGGS)3 linker, VL).
VH: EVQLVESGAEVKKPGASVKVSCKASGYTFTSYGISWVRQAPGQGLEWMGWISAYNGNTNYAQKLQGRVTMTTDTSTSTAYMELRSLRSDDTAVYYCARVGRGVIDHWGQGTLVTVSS
VL: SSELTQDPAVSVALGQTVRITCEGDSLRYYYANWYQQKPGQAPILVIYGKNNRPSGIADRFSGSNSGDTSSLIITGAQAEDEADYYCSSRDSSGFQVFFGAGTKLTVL

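Library AAYL52 holds single substitutions and randomly drawn double and triple substitutions in the CDRs. AlphaSeq pools MATa yeast showing the antibodies with MATalpha yeast showing the peptide. After mating in shaken culture at 30 °C for 16 h, diploids were selected and their barcode pairs sequenced. A regression on co-assayed BCL2-family reference pairs converts the normalised counts of each replicate to an apparent Kd. Each pool was mated in three replicate cultures.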

Each variant is given by its three light chain CDRs, as the data file delimits them; those of the parent are EGDSLRYYYAN, GKNNRPS, SSRDSSGFQVF.
Each Kd is an estimate from the mating assay, the geometric mean of the replicates in which the pair was seen; lower is stronger.
Where no diploid with the target was found in any replicate, the entry reads "nd": below detection, most likely a poor binder, though not proof of it.
For reference, the parent read 200 nM as the reference entry and 180 nM as a member of this library.
Background: pairings of library AAYL52 with three empty control strains gave a value in 28% of cases (median 8.2 µM, 5th percentile 800 nM). Values in that range, when seen in few replicates, are hard to tell from nonspecific mating.

CDR-L1	CDR-L2	CDR-L3	Kd	detected
EHDSLRYLYAN	GKNNRPS	SSRDWSGFQVF	1.9 µM	2 of 3
EGSSLRYYYAN	GKNNRPS	STSDSSGFQVF	nd	0 of 3
EVDSLRYYYAN	MKNNRPS	YSRDSSGFQVF	9.3 µM	1 of 3
EGGSLRYYYAF	GKNNRPS	SSRDSSGFQVF	nd	0 of 3
EGDFLRYYYAN	GKNRRPS	SSRDNSGFQVF	25 µM	3 of 3
EGDDLRYYYAN	GKNNRPS	SSRDSDGFQWF	13 µM	1 of 3
SGDSLRYYQKN	GKNNRPS	SSRDSSGFQVF	3.5 µM	3 of 3
EGDSLRYSYAN	GKNNRPS	SSRDSSGFQVG	17 nM	3 of 3
EGDSLRYYYAN	GKNNRPS	SSRPSSGFQNF	140 nM	3 of 3
EGDSLRYYYAN	GKNNRES	MSRDSEGFQVF	870 nM	3 of 3
EGDSLRYYYAN	GKNNRPR	SCRDSSGFQVF	380 nM	3 of 3
EGDSLRYYYAN	GKWNRPS	SSRDMSGGQVF	24 µM	1 of 3
EGDSLRYYYAN	GKMNRPS	SSRDSSGFQVL	3.8 µM	3 of 3
EGDSLRYYYAN	GKNNRPS	KSFESSGFQVF	3.0 µM	1 of 3
EGDSLRYYYAN	GKNNRTS	SSRDSSIHQVF	760 nM	3 of 3
EGDSLRYYYMD	GKNNRPS	SSRDSSGFQVF	nd	0 of 3
EDDSLRYYYAN	GKNNRPA	SSRDSSYFQVF	11 µM	1 of 3
EGDALRYYDAN	GKNNRPS	SSRDYSGFQVF	29 nM	3 of 3
EGDSLRWYTAN	GHNNRPS	SSRDSSGFQVF	290 nM	3 of 3
EGDELRIYYAN	GQNNRPS	SSRDSSGFQVF	3.6 µM	2 of 3
EGDSLRYYYAN	GKNNTLS	KSRDSSGFQVF	nd	0 of 3
FGDSLRYYYAN	GKNNRPS	SSIDSSGNQVF	6.2 µM	3 of 3
EGDSWRYHYAN	GKNNRPS	SSRDSSGNQVF	1.7 µM	3 of 3
EGDSLRYYFAN	GKDNRPS	FSRDSSGFQVF	250 nM	3 of 3
EGDSLRYYYAN	GKNNRPS	SSRDMSMFQVF	3.8 µM	3 of 3
QGDCLRYYYAN	GKNNRPS	SSRKSSGFQVF	6.6 µM	2 of 3
EGDWLRYSYAN	GKNNRPS	SSRDSTGFQVF	9.7 nM	3 of 3
EGDSLAYYYMN	GKNNRPS	SCRDSSGFQVF	260 nM	3 of 3
EGASLRYTYAN	GKNNRPS	SSRDSSNFQVF	49 nM	3 of 3
EGDSLRYYYAN	GKNNVPS	SSRDSSGFHVN	43 nM	3 of 3
EGDGLRYYKAN	GKNNRPS	SSKDSSGFQVF	4.9 µM	3 of 3
EGDSLRYYYAN	GKNNRMS	SSRDSGGFLVF	1.4 µM	3 of 3
EGDSLRYYYIP	GKNNRPS	SSRDSSGFQVT	9.7 µM	2 of 3
EGESLRYYYAN	GKNNRPS	SSRDSNGFQVL	670 nM	2 of 3
EGDSLRYYYLN	WKNNRPS	SSRDSSGFQVQ	22 µM	1 of 3
EGDWLRYYYAN	GKNNRPS	SSRDSRGFQVF	1.2 µM	2 of 3
EGDSLRYYMAN	GKNMRPS	TSRDSSGFQVF	330 nM	3 of 3
EGDSFRYYYAN	GENNRPS	SSRDSMGFQVF	2.3 µM	3 of 3
EGDSLRYYYAN	GKNNRPS	SSRMSTGFQVF	120 nM	3 of 3
EGDSKIYYYAN	GKNNRPS	SSRDSSGFEVF	220 µM	1 of 3
EGDKLRPYYAN	GKNNRPS	SSRDSSGFYVF	3.0 µM	2 of 3
EGDILRYYYFN	GKNNRPS	SSRDNSGFQVF	1.2 µM	1 of 3
EGDSLRYYYAN	GWNNRPV	SSRDSSGFQVD	36 µM	3 of 3
EGDSCRKYYAN	GKNNRPS	SSRNSSGFQVF	1.9 µM	2 of 3
EGDSLRYYYAN	CKNNRPS	SSRDSSYFQVV	nd	0 of 3
WGDSLRYYYAN	GKNNRPS	SQRDSSGFQVF	1.7 µM	1 of 3
EGDSLAYYYAK	GKNNIPS	SSRDSSGFQVF	25 µM	2 of 3
EGKSLRYYYAN	GDTNRPS	SSRDSSGFQVF	430 nM	3 of 3
EGDSLRYSYAN	GKNQRPS	SSRDSSGFFVF	18 nM	3 of 3
ELDSLRYYYAQ	GKNNRPA	SSRDSSGFQVF	nd	0 of 3
EHDSLRYYYAN	GKNERPS	SSRDMSGFQVF	330 nM	3 of 3
EGDSLRYYYTN	GANNRPS	SWRDSSGFQVF	190 nM	3 of 3
EGDMLRYYYAN	GKKNRPS	SSRDSSGFQVR	nd	0 of 3
EGDSLRYYYAN	GKSNRPS	SSGDSSGFQWF	56 µM	1 of 3
EGDSLRYRYAN	GTNNRPS	SSRDSSGQQVF	25 nM	3 of 3
EGDSLRDYYAN	GKNNRPN	SSRDSSSFQVF	21 nM	3 of 3
EGDSLGYDYAN	GKNNEPS	SSRDSSGFQVF	2.3 µM	2 of 3
EGDSLRYDYAN	GKNNRYS	SSRDSSGFSVF	320 nM	3 of 3
EGDSLRHYYAF	GKDNRPS	SSRDSSGFQVF	nd	0 of 3
IGDSLRYYYEN	GKNNRPY	SSRDSSGFQVF	350 µM	1 of 3
EGDSLRYRYAN	GKNDKPS	SSRDSSGFQVF	7.6 nM	3 of 3
AGDSLRFYYAV	GKNNRPS	SSRDSSGFQVF	150 nM	3 of 3
EGDSLGYYYAN	GKNNRPS	SSRLSSGFQVR	330 nM	3 of 3
EGDSLRYKYAN	GKNNRPS	SSRDSFFFQVF	57 nM	3 of 3
EGDSLRYGYAN	GKNDRPS	SSRQSSGFQVF	310 nM	3 of 3
EGDSLRYYYAN	GKNNRES	FSRDSSHFQVF	17 µM	2 of 3
EGDSLRYYMAS	GKNNRPS	SSRDSSGFVVF	15 µM	3 of 3
EGDSLRYYLAN	GKTNRPI	SSRDSSGFQVF	1.6 µM	2 of 3
NGDSLRYYYAN	GKNNRKS	SGRDSSGFQVF	290 nM	2 of 3
EGDSLRYYYAN	GKNNRPS	CSRDSIGVQVF	17 µM	3 of 3
EGDSLRYYYAN	GDNNRPS	SSRDSWGFNVF	730 nM	3 of 3
EGDSLRYYFLN	GKSNRPS	SSRDSSGFQVF	40 µM	2 of 3
EGDSLRYYYAN	GKNNRPS	SLRHSSGFNVF	1.6 µM	3 of 3
EGDSLRYYYAN	DKNNRPS	SSRISSGFQQF	240 nM	3 of 3

The closing 6 entries, repeated:

CDR-L1,CDR-L2,CDR-L3,Kd,detected
NGDSLRYYYAN,GKNNRKS,SGRDSSGFQVF,290 nM,2 of 3
EGDSLRYYYAN,GKNNRPS,CSRDSIGVQVF,17 µM,3 of 3
EGDSLRYYYAN,GDNNRPS,SSRDSWGFNVF,730 nM,3 of 3
EGDSLRYYFLN,GKSNRPS,SSRDSSGFQVF,40 µM,2 of 3
EGDSLRYYYAN,GKNNRPS,SLRHSSGFNVF,1.6 µM,3 of 3
EGDSLRYYYAN,DKNNRPS,SSRISSGFQQF,240 nM,3 of 3

Source: Engelhart et al. 2022 (doi:10.1038/s41597-022-01779-4), MIT Lincoln Laboratory and A-Alpha Bio; data file from the FLAb repository.